The subject of the assay is Leukemia K562 cell. The experiment in a line: Leukemia K562 cell proliferation/viability assay (CellTiterGlo, 48 hours). It counts as cell-based. To be noted: Homo sapiens; K562 cells. Background: In ATP-based viability assays light output follows the ATP content of the culture.

Consider one compound from patent US11649218B2, “C-Abl tyrosine kinase inhibitory compound embodiments and methods of making and using the same” (The USA, as represented by the Secretary, Dept. of Health …, priority 2018, dated 2023).

pIC50: −log10 of the molar value.

By pIC50 is commonly meant the negative decadic logarithm of the IC50, by convention in mol/L. A higher pIC50 goes with a low IC50.

`O=C(NCCO)c1cccc(-c2cc(Nc3ccc(OC(F)(F)F)cc3)ncn2)c1` [GNF-5] had a pIC50 of 6.03.
